The text below walks through data of US20190177414A1 (AKESO BIOPHARMA, published 2019).

Assay [1] concerns the target T1, CTLA4 on the surface of cells (UniProt P16410 36-223, limits assumed).
T1 construct: whole, on cells; One entry is used for both cell types; the assay field says which cells; also called CTLA-4 target protein on the surface of T cells
T1 sequence (looked up): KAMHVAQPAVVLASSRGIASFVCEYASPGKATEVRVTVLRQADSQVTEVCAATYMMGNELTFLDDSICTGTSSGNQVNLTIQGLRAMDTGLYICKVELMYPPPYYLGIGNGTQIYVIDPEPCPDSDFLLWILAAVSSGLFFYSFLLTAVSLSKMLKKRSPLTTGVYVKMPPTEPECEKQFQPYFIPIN
In words: flow cytometry on 293T-CTLA4 cells.

In assay [2] the target is T2, CTLA4 antigen (CTLA4 protein obtained by cleaving the CTLA4-mFc fusion protein with TEV protease) (human, UniProt P16410 36-161).
T2 construct: extracellular domain; after cleavage part of the TEV site may remain at the C-terminus; also called CTLA4ECD
T2 sequence (looked up): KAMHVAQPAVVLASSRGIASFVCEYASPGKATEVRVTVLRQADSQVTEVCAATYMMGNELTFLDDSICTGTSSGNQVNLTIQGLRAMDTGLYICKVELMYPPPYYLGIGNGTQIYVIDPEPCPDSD
In words: indirect ELISA; CTLA4 coated 2 ug/ml. In general terms: ELISA stands for enzyme-linked immunosorbent assay.

In assay [3] the target is T3, CTLA4-mFc fusion protein (human).
T3 construct: also called CTLA4-mFc antigen
Description: competitive ELISA; competitor B7-1-hFc coated 1 ug/ml; CTLA4-mFc 0.3 ug/ml.

The target of assay [4] is T4, cyno CTLA-4 (cyno, UniProt G7PL88 36-161).
T4 sequence: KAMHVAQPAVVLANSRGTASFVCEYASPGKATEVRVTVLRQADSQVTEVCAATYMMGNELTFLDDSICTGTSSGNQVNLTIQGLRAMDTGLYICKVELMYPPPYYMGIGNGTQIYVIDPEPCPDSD
Description: absorbance at 450 nm against antibody concentration (ELISA-type readout; the text describes no method for this figure).

In assay [5] the target is T2, CTLA4 antigen (CTLA4 protein obtained …). In words: indirect ELISA; CTLA4 coated 0.5 ug/ml.
Assay [6] deals with T3, CTLA4-mFc fusion protein. In words: competitive ELISA; competitor B7-1-hFc coated 0.5 ug/ml; CTLA4-mFc 0.3 ug/ml.

What is called EC50 is the concentration giving half of the maximal effect. A lower EC50 goes with higher potency in that assay. Usually EC50 (read off the curve) stands for the concentration at which the effect is half-maximal. A lower EC50 (read off the curve) goes with greater potency.

B1: humanized antibody 4G10H3L3 (antibody, V domains shown)
VH: QVQLVESGAEVKKPGASVKVSCKASGYSFTGYTMNWVRQAPGQGLEWIGLINPYNNITNYAQKFQGRVTFTVDTSISTAYMELSRLRSDDTGVYFCARLDYRSYWGQGTLVTVSA
VL: QAVVTQEPSLTVSPGGTVTLTCGSSTGAVTTSNFPNWVQQKPGQAPRSLIGGTNNKASWTPARFSGSLLGGKAALTISGAQPEDEAEYYCALWYSNHWVFGGGTKLTVLR
On to B1, for which the EC50 in assay [1] is 5.4 nM; in assay [2], 0.063 nM; in assay [3], 0.481 nM. Also, the “EC50 (read off the curve)” value in assay [4] was around 0.1 nM.

B2: humanized antibody 4G10H1L1 (antibody, V domains shown)
VH: QVQLVESGAELVKPGASMKISCKASGYSFTGYTMNWVKQAPGQGLEWIGLINPYNNITNYNQKFMGKATFTVDKSISTAYMELSRLTSDDSGVYFCARLDYRSYWGQGTLVTVSA
VL: QAVVTQEPSLTVSPGGTVTLTCGSSTGAVTTSNFANWVQEKPGQAFRSLIGGTNNRASWVPARFSGSLLGGKAALTISGAQPEDEAEYFCALWYSNHWVFGGGTKLTVLR
As for B2, the EC50 in assay [5] was 0.074 nM; in assay [6] it was 1.37 nM.
